Measurements taken from ChEMBL document CHEMBL1821711, “Design and synthesis of novel arylpiperazine derivatives containing the imidazole core targeting 5-HT(2A) receptor and 5-HT transporter” (J Med Chem, 2011).

By UniProt entry, the sequences of proteins in these tests, tags left out. Where a name states a change or a piece, a line headed by the entry shows the natural chain unless it says otherwise.
UniProt P31645, whole entry: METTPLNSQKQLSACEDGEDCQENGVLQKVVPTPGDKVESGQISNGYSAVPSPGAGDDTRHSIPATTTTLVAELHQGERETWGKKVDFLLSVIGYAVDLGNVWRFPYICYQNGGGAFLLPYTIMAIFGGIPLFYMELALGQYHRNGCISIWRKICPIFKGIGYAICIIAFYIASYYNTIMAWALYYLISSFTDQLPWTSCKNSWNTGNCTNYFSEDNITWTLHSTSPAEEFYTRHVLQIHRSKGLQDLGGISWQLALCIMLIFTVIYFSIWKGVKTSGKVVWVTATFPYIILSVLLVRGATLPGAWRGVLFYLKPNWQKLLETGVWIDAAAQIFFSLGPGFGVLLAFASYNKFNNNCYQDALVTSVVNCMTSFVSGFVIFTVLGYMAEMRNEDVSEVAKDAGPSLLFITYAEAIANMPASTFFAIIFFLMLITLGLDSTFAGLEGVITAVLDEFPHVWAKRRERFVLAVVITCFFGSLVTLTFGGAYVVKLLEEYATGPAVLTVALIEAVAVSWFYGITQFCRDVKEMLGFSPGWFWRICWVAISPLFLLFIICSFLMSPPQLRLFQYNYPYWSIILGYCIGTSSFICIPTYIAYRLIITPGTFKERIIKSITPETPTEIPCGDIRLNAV
UniProt P28335: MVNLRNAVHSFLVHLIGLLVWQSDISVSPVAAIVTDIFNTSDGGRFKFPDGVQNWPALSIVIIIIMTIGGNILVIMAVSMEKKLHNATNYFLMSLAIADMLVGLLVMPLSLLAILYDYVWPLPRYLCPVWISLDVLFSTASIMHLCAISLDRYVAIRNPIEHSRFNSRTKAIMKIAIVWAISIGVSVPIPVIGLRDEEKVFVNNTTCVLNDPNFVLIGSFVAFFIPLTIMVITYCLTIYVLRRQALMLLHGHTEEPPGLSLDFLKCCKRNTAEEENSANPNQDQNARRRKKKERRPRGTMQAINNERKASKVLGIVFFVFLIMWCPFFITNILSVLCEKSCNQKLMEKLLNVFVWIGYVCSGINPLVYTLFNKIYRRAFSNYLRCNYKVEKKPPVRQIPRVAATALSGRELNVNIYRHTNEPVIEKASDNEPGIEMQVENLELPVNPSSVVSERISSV

What was measured:
[1] = target: Sodium-dependent serotonin transporter (Homo sapiens, UniProt P31645); assay: biochemical; format: cell-based, HEK293
[2] = target: 5-hydroxytryptamine receptor 2C (Homo sapiens, UniProt P28335); assay: biochemical; format: cell-based, CHO-K1

IC50 [1] | IC50 [2] | SMILES
18 nM | – | CCCn1c(C)nc(C(=O)NCCCN2CCN(c3cccc(Cl)c3Cl)CC2)c1C
5 nM | 237 nM | CCCc1nc(C(=O)NCCCN2CCN(c3cccc(C)c3C)CC2)c(C)n1-c1ccc2c(c1)OCCO2
28 nM | – | CCCc1nc(C(=O)NCCCN2CCN(c3cccc(Cl)c3C)CC2)c(C)n1-c1ccc(F)cc1
6.6 nM | – | CCCc1nc(C(=O)NCCCN2CCN(c3cccc(C)c3C)CC2)c(C)n1-c1ccc(F)cc1
188 nM | – | CCCc1nc(C(=O)NCCCN2CCN(c3cccc(C)c3C)CC2)cn1-c1ccc(F)cc1
55 nM | – | CCCc1nc(C(=O)NCCCN2CCN(c3cccc(Cl)c3C)CC2)c(C)n1-c1ccccc1OC
200 nM | – | Cc1c(C(=O)NCCCN2CCN(c3cccc(Cl)c3Cl)CC2)nc(-c2ccccc2)n1-c1ccccc1F
9.53 nM | – | Cc1c(Cl)cccc1N1CCN(CCCNC(=O)c2nc(C)n(C3CCCC3)c2C)CC1
16.8 nM | – | CCCc1nc(C(=O)NCCCN2CCN(c3cccc(C)c3C)CC2)cn1-c1ccccc1
185 nM | – | Cc1cccc(N2CCN(CCCNC(=O)c3nc(-c4ccccc4)n(-c4ccc5c(c4)OCCO5)c3C)CC2)c1C
– | 284 nM | CCCc1nc(C(=O)NCC(O)CN2CCN(c3cccc(Cl)c3C)CC2)c(C)n1-c1ccc2c(c1)OCCO2 (centres undefined)
– | > 10000 nM | Cc1c(Cl)cccc1N1CCN(CC(O)CNC(=O)c2nc(-c3ccccc3)n(-c3ccc(F)cc3)c2C)CC1 (racemic)
39.1 nM | – | Cc1c(Cl)cccc1N1CCN(CC(O)CNC(=O)c2nc(C)n(C3CCCC3)c2C)CC1 (centres undefined)
25 nM | – | COc1ccc(-n2c(-c3ccccc3)nc(C(=O)NCCCN3CCN(c4cccc(Cl)c4C)CC3)c2C)cc1
66 nM | – | CCCc1nc(C(=O)NCCCN2CCN(c3cccc(Cl)c3C)CC2)cn1-c1ccc(Cl)cc1
50.5 nM | – | Cc1cccc(N2CCN(CCCNC(=O)c3cn(-c4ccccc4)c(-c4ccccc4)n3)CC2)c1C
2.7 nM | – | Cc1c(Cl)cccc1N1CCN(CCCNC(=O)c2nc(C)n(-c3ccc4c(c3)OCCO4)c2C)CC1
35 nM | – | Cc1nc(C(=O)NCCCN2CCN(c3cccc(Cl)c3Cl)CC2)c(C)n1C1CCCC1
182 nM | – | Cc1c(Cl)cccc1N1CCN(CCCNC(=O)c2nc(-c3ccccc3)n(-c3ccccc3)c2Cn2cncn2)CC1
14 nM | – | CCCc1nc(C(=O)NCCCN2CCN(c3cccc(Cl)c3C)CC2)c(C)n1-c1ccc2c(c1)OCCO2
– | 479 nM | Cc1c(Cl)cccc1N1CCN(C[C@H](O)CNC(=O)c2nc(-c3ccccc3)n(-c3ccc(F)cc3)c2C)CC1
28 nM | – | CCCc1nc(C(=O)NCCCN2CCN(c3cccc(C)c3C)CC2)c(C)n1-c1ccccc1OC
17.8 nM | – | Cc1c(Cl)cccc1N1CCN(CCCNC(=O)c2nc(-c3ccccc3)n(-c3ccccc3)c2C)CC1
195 nM | – | Cc1c(C(=O)NCC(O)CN2CCN(c3cccc(Cl)c3Cl)CC2)nc(-c2ccccc2)n1-c1ccc(F)cc1 (centres undefined)
76 nM | – | COc1ccc(-n2c(-c3ccccc3)nc(C(=O)NCCCN3CCN(c4cccc(Cl)c4Cl)CC3)c2C)cc1
– | 109 nM | Cc1c(C(=O)NCCCN2CCN(c3cccc(Cl)c3Cl)CC2)nc(-c2ccccc2)n1-c1ccccc1
282 nM | – | Cc1c(Cl)cccc1N1CCN(CCCNC(=O)c2nc(-c3ccccc3)n(-c3ccc(F)cc3)c2C)CC1
6.08 nM | – | Cc1cccc(N2CCN(CCCNC(=O)c3nc(C)n(-c4ccc5c(c4)OCCO5)c3C)CC2)c1C
